Test results reported in patent US5266599A, “Use of (+)-1-[(3,4,5-trimethoxy)-benzyloxymethyl]-1-phenyl-N,N-dimethyl-n-propy lamine to increase gastric discharge in a subject” (priority 1989, dated 1993).

Tests used:
[1] = tested on: opiate receptors of the kappa type in the gastric mucous membrane; settings: dog, M. Gue et al.; cited from earlier work
[2] = tested on: opiate receptors of the gastric mucous membrane; experiment: Effect of the products on the gastric evacuation of solids in dogs; type: in vivo; settings: intravenous antagonist
Description: The research on the local activity of the product of the invention on the opiate receptors of the gastric mucous membrane has been carried out according to a method following that described by M. Gue et al. (already mentioned).
In an attempt to show such an action with the product of the invention, this has been used in this test, compared with its levorotary enantiomer and trimebutine which is known for its regulatory activity of the gastrointestinal functioning.
The principle of the test consists in measuring the gastric content of the animals one hour after eating a meal comprising 400 g of solid matter with 21.7% dry matter composed of:
and 20 g of sheeps liver containing radiolabelled cyanocobalamine. […]
The collected sample is weighed and homogenized. Its radioactivity is measured and the amount of the gastric discharge expressed in percentage is calculated according to the formula: [formula] in which: […]
In practice, each test is carried out on three dogs and consists in administering to them, 20 minutes before eating the meal described above, a capsule containing the test product at a dose of […] per kg animal weight or a capsule placebo which serves to determine the control phenomenon of the discharge on the animal. […] The evacuation values of the solid phases are measured as described before and compared using the test of Mann and Whitney (U test). […]

For `C=CCN1CC[C@]23c4c5ccc(O)c4O[C@H]2C(=O)CC[C@@]3(O)[C@H]1C5` [naloxone], the “inhibition of the gastric discharge effect of kappa agonists (in words)” value [1] is given as “inhibited” and the “inhibition of the gastric discharge effect of the product of the invention by the antagonist (in words)” value [2] is given as “inhibited”.
